Target: wild-type human NK2 receptors (Homo sapiens, UniProt P21452)
Conditions: short pulses of agonist from puffer pipette, n=60

By UniProt entry, the sequences of proteins in these tests, tags left out.
UniProt P21452, whole entry: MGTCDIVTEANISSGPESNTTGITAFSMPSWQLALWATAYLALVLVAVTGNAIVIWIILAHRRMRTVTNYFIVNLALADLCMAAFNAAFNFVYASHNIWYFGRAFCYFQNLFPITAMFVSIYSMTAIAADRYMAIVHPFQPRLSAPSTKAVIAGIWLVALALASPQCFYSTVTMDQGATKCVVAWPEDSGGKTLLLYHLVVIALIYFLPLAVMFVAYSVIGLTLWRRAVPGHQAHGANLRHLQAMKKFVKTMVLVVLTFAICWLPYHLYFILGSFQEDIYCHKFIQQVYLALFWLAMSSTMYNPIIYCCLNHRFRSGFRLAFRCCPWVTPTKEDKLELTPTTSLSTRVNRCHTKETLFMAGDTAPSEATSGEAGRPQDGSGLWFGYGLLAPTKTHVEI

neurokinin A [NKA]
decay of translocation response between stimuli: 45 ± 7 s

— US6596499B2, “Membrane molecule indicator compositions and methods” (The Netherlands Cancer Institute, priority 2000, dated 2003)
